Measured values: paper PMC5360572

B1: full-length human PD-1, wild type, on HEK293 cells [human] / human PD-L2 Ig fusion protein [human] (parent)
chain 1: LFTVTVPKELYIIEHGSNVTLECNFDTGSHVNLGAITASLQKVENDTSPHRERATLLEEQLPLGKASFHIPQVQVRDEGQYQCIIIYGVAWDYKYLTLKVKASYRKINTHILKVPETDEVELTCQATGYPLAEVSWPNVSVPANTSHSRTPEGLYQVTSVLRLKPPPGRNFSCVFWNTHVRELTLASIDLQSQMEPRTHPT
chain 2: LDSPDRPWNPPTFSPALLVVTEGDNATFTCSFSNTSESFVLNWYRMSPSNQTDKLAAFPEDRSQPGQDCRFRVTQLPNGRDFHMSVVRARRNDSGTYLCGAISLAPKAQIKESLRAELRVTERRAEVPTAHPSPSPRPAGQFQTLVVGVVGGLLGSLVLLVWVLAVICSRAARGTIGARRTGQPLKEDPSAVPVFSVDYGELDFQWREKTPEPPVPCVPEQTEYATIVFPSGMGTSSPARRGSADGPRSAQPLRPEDGHCSWPL

Variants of: B1
Assay: flow cytometry on cells
Details: with human PD-L2 Ig fusion protein [human], read off a plot
[1] = PD-L2 Ig about 6 nM (x position estimated)
[2] = PD-L2 Ig about 60 nM (x position estimated)

response [1] [MFI]	response [2] [MFI]	response (PD-L2 Ig about 330 nM (x position estimated)) [MFI]	Variant
55	130	130	chain 2 L104A
47	87	–	chain 2 L104R
